Consider 1 compound from US9962444B2, “Pharmacokinetically extended action topical hair growth formulation, and administration method” (priority 2016, dated 2018).

A short description of the series: in vitro percutaneous absorption of minoxidil, Franz Finite Dose Model. The following applies: ex vivo human scalp skin, 48 hours.

For the compound `Nc1cc(N2CCCCC2)nc(N)[n+]1[O-]` [minoxidil], the “percutaneous absorption (result in words)” value was “did absorb into and penetrate through ex vivo human scalp skin”.
